Data on one substance can be found in US9546139B2, “Pyridine carboxylic acid based compound used as a P2X1 and P2X3 receptor antagonist, a production method for the same and a composition comprising the same” (GWANGJU INSTITUTE OF SCIENCE AND TECHNOLOGY, priority 2010, dated 2017).

Sequences of proteins named here, by UniProt entry; tags and fusion partners are left off. A change or cut given only in a name is not applied to a line headed by its entry.
UniProt P51576: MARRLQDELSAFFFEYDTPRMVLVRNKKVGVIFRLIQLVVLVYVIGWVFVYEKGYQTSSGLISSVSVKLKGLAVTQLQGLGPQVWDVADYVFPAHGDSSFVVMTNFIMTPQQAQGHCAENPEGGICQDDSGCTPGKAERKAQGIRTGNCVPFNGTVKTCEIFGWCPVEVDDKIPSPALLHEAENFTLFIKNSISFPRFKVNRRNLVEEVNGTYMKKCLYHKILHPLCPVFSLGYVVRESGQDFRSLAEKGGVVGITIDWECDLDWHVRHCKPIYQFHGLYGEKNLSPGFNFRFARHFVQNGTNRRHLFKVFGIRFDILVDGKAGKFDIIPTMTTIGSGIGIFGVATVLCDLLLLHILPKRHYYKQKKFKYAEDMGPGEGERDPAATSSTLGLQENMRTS
UniProt P56373: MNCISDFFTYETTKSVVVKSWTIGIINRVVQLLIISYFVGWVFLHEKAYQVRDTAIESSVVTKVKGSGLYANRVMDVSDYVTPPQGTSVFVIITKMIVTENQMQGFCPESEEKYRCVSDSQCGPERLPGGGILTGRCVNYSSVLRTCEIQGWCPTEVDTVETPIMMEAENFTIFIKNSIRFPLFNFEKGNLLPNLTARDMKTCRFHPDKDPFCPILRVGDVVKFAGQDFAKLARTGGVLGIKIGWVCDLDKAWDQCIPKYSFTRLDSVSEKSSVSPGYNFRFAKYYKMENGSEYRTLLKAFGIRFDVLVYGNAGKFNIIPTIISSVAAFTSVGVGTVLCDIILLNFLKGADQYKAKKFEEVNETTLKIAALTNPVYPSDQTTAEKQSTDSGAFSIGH
UniProt P51575: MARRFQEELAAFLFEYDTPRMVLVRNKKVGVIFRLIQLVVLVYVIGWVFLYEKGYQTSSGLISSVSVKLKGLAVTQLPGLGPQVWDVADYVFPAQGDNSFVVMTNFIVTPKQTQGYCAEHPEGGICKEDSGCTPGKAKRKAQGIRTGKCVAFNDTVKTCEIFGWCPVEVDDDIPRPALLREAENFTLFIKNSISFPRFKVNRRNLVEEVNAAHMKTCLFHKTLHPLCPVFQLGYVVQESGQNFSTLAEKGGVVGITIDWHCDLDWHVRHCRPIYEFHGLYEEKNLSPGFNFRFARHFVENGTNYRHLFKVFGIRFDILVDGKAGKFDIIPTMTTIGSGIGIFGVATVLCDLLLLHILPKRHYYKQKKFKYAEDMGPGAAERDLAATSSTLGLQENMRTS

In one assay the target is mouse P2X1 receptor (Mus musculus, UniProt P51576). Kind of assay: Two-electrode voltage clamp, ATP-induced ion current in Xenopus oocytes expressing mouse P2X1. The assay is classed as cell-based. As to conditions: Table 1; 10 μM compound; ion current induced by 2 μM ATP; mean ± SEM, n = 4. How it is done:
1-1. Antagonistic Activity at Recombinant Mouse P2X1 and Human P2X3 Receptors
Xenopus oocytes were harvested and prepared with method as previously described in publications. Defolliculated oocytes were injected cytosolically with mouse P2X1 and human P2X3 receptor cRNA ([…], 1 μg/mL), respectively, incubated for 24 hrs at 18° C. in Barth's solution and kept for up to 12 days at 4° C. until used in electrophysiological experiments. ATP-activated membrane currents (Vh=−70 mV) were recorded from cRNA-injected oocytes using the twin-electrode voltage-clamp technique (Axoclamp 2B amplifier). Voltage recording (1-2 MΩ tip resistance) and current-recording microelectrodes (5 MΩ tip resistance) were filled with 3.0 M KCl. Oocytes were held in an electrophysiological chamber and superfused with Ringer's solution (5 mL/min, at 18° C.) containing (mM) NaCl, 110; KCl, 2.5; HEPES, 5; BaCl2, 1.8, adjusted to pH 7.5. ATP was superfused over the oocytes for 60-120s then washed out for a period of 20 min. For inhibition curves, data were normalized to the current evoked by ATP, at pH 7.5. Test substances were added for 20 min prior to ATP exposure; all peptides were tested for reversibility of their effects. […]

The target of another assay is human P2X3 receptor (Homo sapiens, UniProt P56373). Kind of assay: Two-electrode voltage clamp, ATP-induced ion current in Xenopus oocytes expressing human P2X3. The assay is classed as cell-based. As to conditions: Table 1; 10 μM compound; ion current induced by 2 μM ATP; mean ± SEM, n = 4. (In general: Two-electrode voltage clamp holds a large cell at a set potential and records current.)

Assay [1] deals with recombinant P2X1 receptor (Homo sapiens, UniProt P51575). Particulars: well-known antagonist to agonist-induced cation influx; cited from earlier work.

As usually defined, the IC50 is the midpoint of a concentration-inhibition curve. On to pyridoxal-5-phosphate, for which the “% inhibition mP2X1” value at mouse P2X1 receptor is reported as 13.2 ± 3.1%. For the same substance, the “% inhibition hP2X3” value on human P2X3 receptor stood at 20.1 ± 4.2%. In addition, the IC50 in assay [1] is 10 µM.
